This passage reports IC50 results from BindingDB's records for 2913310.

Protein sequences, listed by entry. Tags and fused reporters are not part of them. Lines headed by an entry give the natural chain unless they say otherwise; changes in a name come on top. Residues count along the entry.
UniProt P22303, 32-614 limits assumed: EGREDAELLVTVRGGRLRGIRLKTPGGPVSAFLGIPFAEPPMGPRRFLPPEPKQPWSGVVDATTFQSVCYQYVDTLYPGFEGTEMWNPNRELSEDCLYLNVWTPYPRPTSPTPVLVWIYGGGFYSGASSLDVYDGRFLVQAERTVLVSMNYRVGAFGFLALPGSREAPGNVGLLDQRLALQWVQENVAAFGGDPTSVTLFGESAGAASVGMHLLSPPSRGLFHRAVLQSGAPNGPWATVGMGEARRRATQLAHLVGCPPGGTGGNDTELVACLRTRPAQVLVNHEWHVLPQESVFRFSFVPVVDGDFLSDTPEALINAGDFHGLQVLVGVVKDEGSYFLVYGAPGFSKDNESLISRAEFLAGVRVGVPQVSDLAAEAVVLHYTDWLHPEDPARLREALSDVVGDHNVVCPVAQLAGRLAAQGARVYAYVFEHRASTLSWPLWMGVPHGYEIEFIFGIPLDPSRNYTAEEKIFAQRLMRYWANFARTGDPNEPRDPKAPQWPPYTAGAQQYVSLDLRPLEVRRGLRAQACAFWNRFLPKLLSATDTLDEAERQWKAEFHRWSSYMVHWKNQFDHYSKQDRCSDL
UniProt O42275, 24-633 limits assumed: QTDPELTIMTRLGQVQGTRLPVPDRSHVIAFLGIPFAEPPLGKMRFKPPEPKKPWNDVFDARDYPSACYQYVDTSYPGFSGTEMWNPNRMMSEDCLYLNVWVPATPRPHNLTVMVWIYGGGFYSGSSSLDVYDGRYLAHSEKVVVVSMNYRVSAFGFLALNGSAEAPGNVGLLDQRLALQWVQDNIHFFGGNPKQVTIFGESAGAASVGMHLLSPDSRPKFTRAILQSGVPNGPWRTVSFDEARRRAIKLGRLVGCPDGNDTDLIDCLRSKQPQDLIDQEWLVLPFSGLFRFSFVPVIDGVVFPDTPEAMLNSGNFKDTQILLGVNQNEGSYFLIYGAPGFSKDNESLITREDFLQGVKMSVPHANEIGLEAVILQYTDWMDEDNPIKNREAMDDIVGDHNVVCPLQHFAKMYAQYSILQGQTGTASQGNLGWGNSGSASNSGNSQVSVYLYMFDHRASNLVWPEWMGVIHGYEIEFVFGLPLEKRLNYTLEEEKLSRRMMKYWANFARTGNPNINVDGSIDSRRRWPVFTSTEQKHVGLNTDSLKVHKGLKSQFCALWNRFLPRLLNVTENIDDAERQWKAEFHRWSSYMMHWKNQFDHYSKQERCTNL
UniProt P12657: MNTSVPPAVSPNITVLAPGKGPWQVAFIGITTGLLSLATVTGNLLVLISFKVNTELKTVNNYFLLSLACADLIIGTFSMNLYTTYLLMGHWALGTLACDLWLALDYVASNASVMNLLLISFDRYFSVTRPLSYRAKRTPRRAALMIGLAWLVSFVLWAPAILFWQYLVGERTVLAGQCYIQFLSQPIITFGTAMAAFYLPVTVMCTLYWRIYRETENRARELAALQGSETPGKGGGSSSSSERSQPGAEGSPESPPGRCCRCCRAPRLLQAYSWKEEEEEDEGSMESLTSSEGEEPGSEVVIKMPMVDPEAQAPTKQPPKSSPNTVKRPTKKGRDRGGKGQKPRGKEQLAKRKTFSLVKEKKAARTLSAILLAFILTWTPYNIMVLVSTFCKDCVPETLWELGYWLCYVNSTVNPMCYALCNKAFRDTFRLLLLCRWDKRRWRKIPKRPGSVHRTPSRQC
UniProt P32211: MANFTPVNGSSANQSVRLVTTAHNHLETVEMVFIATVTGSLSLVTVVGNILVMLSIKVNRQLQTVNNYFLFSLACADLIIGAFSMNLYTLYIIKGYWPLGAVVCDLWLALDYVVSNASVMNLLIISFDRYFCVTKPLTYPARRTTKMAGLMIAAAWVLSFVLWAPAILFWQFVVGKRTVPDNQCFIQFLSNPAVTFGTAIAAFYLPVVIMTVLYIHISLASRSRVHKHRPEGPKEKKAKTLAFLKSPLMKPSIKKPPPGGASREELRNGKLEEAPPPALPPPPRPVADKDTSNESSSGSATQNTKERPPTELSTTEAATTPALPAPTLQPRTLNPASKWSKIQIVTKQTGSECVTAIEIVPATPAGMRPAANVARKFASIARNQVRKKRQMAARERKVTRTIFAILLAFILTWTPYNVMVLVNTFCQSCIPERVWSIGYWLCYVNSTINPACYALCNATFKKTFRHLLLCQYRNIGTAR
UniProt Q920H4: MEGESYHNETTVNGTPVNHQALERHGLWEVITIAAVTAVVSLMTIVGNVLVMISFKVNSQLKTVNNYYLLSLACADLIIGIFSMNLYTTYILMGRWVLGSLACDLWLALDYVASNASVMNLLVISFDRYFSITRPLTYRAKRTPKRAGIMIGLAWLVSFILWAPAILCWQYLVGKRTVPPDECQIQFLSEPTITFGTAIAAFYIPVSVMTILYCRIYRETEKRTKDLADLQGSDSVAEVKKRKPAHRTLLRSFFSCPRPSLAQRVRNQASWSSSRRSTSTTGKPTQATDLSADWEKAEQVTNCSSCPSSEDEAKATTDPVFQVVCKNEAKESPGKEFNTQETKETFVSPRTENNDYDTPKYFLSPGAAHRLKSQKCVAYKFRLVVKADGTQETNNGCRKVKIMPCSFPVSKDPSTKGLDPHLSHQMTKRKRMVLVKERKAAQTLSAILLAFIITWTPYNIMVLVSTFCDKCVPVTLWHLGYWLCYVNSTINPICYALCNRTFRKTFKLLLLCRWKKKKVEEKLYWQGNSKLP
UniProt Q9ERZ3: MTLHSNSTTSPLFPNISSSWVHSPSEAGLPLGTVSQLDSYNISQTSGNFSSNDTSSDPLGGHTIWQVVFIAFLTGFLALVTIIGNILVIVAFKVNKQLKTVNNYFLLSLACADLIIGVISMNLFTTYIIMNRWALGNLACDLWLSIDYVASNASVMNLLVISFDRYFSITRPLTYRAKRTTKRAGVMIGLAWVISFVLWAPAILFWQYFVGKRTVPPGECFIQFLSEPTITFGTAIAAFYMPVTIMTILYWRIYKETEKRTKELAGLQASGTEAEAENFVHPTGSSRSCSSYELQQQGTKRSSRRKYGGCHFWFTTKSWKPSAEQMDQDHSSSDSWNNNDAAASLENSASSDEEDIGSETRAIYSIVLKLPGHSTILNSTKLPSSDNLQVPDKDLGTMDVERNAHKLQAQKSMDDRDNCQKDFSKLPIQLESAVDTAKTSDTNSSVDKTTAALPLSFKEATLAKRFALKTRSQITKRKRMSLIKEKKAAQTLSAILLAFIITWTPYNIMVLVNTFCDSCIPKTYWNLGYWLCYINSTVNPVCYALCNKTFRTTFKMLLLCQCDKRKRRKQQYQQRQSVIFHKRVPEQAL
UniProt Q9ERZ4: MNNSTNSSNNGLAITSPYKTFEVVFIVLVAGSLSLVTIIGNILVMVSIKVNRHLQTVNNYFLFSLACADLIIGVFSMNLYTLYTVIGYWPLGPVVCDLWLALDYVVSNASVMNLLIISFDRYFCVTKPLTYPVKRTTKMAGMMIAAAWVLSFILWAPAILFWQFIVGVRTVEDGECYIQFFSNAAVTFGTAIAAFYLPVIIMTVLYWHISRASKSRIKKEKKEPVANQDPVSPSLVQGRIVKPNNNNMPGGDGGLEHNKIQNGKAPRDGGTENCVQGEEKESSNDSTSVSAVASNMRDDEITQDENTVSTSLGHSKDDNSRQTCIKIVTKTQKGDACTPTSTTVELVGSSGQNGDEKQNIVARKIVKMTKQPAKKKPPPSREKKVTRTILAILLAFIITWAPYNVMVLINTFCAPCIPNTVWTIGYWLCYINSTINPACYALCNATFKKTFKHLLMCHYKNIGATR
UniProt P32738: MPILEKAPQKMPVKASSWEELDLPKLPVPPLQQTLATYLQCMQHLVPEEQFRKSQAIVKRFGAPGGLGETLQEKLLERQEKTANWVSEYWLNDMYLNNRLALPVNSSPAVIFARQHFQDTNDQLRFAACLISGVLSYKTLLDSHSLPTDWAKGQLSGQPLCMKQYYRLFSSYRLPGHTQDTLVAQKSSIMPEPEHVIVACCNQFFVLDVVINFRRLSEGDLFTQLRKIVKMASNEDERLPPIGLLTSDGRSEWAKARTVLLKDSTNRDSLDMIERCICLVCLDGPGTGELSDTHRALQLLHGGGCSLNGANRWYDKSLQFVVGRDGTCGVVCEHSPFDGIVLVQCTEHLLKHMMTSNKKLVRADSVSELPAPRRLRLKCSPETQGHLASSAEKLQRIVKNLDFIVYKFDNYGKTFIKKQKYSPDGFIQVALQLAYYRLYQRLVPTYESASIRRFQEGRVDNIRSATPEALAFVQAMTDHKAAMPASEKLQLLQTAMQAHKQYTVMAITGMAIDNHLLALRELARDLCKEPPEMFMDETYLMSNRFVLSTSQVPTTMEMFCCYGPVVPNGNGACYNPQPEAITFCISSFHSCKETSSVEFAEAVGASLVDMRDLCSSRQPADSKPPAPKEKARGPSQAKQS
UniProt P23795, 31-613 limits assumed: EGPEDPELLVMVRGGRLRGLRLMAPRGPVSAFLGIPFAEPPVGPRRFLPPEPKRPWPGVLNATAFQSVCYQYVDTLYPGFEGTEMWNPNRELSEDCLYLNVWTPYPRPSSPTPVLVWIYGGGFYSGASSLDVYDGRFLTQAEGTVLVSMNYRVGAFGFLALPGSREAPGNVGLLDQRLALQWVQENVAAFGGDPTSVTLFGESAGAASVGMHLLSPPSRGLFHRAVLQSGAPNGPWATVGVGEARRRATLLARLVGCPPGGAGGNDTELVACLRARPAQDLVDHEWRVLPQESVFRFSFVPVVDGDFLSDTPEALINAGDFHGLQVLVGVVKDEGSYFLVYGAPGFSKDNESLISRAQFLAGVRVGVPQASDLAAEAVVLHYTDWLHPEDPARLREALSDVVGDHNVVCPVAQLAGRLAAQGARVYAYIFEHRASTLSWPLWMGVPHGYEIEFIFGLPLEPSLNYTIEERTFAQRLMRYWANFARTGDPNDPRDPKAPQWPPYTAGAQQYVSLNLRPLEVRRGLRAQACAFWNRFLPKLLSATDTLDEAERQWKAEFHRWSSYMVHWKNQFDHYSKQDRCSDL

Test [1] deals with Acetylcholinesterase (Homo sapiens, UniProt P22303). Briefly: ChEBML_28161.
In test [2] the target is Acetylcholinesterase (Electrophorus electricus, UniProt O42275). Put plainly: ChEBML_27967.
The target in test [3] is T1, Muscarinic acetylcholine receptor M1/M2/M3/M4/M5 (UniProt P12657+P32211+Q920H4+Q9ERZ3+Q9ERZ4). Briefly: ChEBML_138643.
Test [4] deals with Choline O-acetyltransferase (Rattus norvegicus, UniProt P32738). Put plainly: ChEBML_27371.
For test [5], the target named is Acetylcholinesterase (Bos taurus, UniProt P23795). Put plainly: ChEBML_27812.
The target of test [6] is T1, Muscarinic acetylcholine receptor M1/M2/M3/M4/M5. Briefly: Compound was tested for the binding affinity towards muscarinic acetylcholine receptor in mouse brain membrane.

pIC50: −log10 of the molar value.

Regarding `Cn1c(CN=O)[n+](C)c2ccccc21`, in test [1], the pIC50 was 3.91.

As for `COC[n+]1ccn(C)c1CN=O`, the pIC50 in test [2] was 3.54; in test [3] it was 3.00; in test [4] it was 3.54; in test [5], 3.86; in test [1] it was 3.87.

For `NC(=O)c1cc[n+](COC[n+]2ccccc2CN=O)cc1`, the negative-log IC50 (pIC50) in test [6] was 3.80; in test [4], 3.10.

As for `O=NCc1cccc[n+]1COCCOC[n+]1ccccc1CN=O`, the pIC50 in test [2] is 3.92; in test [1] it was 3.47.

In the case of `Cn1cc[n+](COCCCc2ccccc2)c1CN=O`, the pIC50 in test [4] was 4.82.

In turn, `CC(OC[n+]1ccn(C)c1CN=O)C(C)(C)C` (configuration not stated) showed a pIC50 in test [4] of 4.80.

For the compound `C[n+]1ccccc1CN=O`, the negative logarithm of the IC50 (pIC50) in test [3] is 3.77.

In the case of `Cn1cc[n+](COCc2cccc3ccccc23)c1CN=O`, the pIC50 in test [2] and in test [4] was 5.15 each time.

For the compound `COC[n+]1c(CN=O)n(C)c2ccccc21`, the figures for the pIC50 in test [2] and in test [1] were 3.74 and 3.70, respectively.
